Biological target: MEK-NL (Homo sapiens, UniProt Q02750)
Assay: Tracer buildup curves on MEK-NLuc (NanoBRET)
Type: cell-based

Protein sequences, listed by entry. Tags and fused reporters are not part of them.
UniProt Q02750, whole entry: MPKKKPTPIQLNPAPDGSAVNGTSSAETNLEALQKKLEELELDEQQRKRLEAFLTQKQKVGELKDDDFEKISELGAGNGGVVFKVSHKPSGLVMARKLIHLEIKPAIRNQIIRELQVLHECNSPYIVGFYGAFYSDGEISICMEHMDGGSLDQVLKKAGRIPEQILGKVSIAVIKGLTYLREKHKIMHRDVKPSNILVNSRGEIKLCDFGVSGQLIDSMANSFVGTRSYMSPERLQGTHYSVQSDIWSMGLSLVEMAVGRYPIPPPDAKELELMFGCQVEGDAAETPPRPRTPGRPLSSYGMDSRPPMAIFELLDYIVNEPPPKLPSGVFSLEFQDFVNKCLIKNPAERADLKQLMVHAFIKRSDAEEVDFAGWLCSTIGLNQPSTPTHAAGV

For `O=C(CCC1=[N+]2C(=Cc3ccc(-c4ccc[nH]4)n3[B-]2(F)F)C=C1)NCCOCCOCCOCCONC(=O)c1ccc(F)c(F)c1Nc1ccc(I)cc1F`, which EC50 (read-out: binding affinity to MEK-NL (tracer buildup curves), HEK293T cells, 2 hrs at 37° C.) is on record?
The EC50 was 350 nM.

And the “weaker binding affinity to MEK-NL compared to Tram-bo” value (tracer buildup curves)?
Its value is ~ 70 fold.
